According to ChEMBL document CHEMBL4725398 (Bioorg Med Chem, 2020):

Organism: Homo sapiens

Compared with `C=C(Cl)C(=O)Nc1cccc(Nc2nc(Nc3ccc(N4CCN(C(C)=O)CC4)cc3OC)ncc2C(F)(F)F)c1`, `C=C(Cl)C(=O)Nc1cccc(Nc2nc(Nc3ccc(N4CCN(C(C)=O)CC4)cc3Cl)ncc2Cl)c1` is lower in Selectivity Index: 16.1 for the first, 6.4 for the second.

First: C=C(Cl)C(=O)Nc1cccc(Nc2nc(Nc3ccc(N4CCN(C(C)=O)CC4)c(C)c3)ncc2Cl)c1
Second: C=C(Cl)C(=O)Nc1cccc(Nc2nc(Nc3ccc(N4CCN(C(C)=O)CC4)c(Cl)c3)ncc2Cl)c1
The Selectivity Index of the first is higher: 19.6 for the first, 16.6 for the second.

First: C=C(Cl)C(=O)Nc1cccc(Oc2nc(Nc3ccc(N4CCN(C(C)=O)CC4)cc3)ncc2Cl)c1
Second: C=C(Cl)C(=O)Nc1cccc(Nc2nc(Nc3ccc(N4CCN(C(C)=O)CC4)cc3)ncc2Cl)c1
The Selectivity Index of the first is lower: 10 for the first, 17.9 for the second.

`C=C(Cl)C(=O)Nc1cccc(Nc2nc(Nc3ccc(N4CCN(C(C)=O)CC4)nc3)ncc2Cl)c1` showed a Selectivity Index of 17.3.
